Experiments:
[1] = target: CaV2.2 (Homo sapiens, UniProt Q00975); assay: VIPR optical membrane potential assay with electrical stimulation, CaV2.2; settings: read-out: CaV 2.2 activity; Table 9, CaV 2.2 receptors
[2] = target: NaV1.3 (Homo sapiens, UniProt Q9NY46); assay: VIPR optical membrane potential assay with electrical stimulation, NaV1.3; settings: read-out: NaV 1.3 activity; Table 9, NaV 1.3 receptors
[3] = target: NaV1.8 (Homo sapiens, UniProt Q9Y5Y9); assay: VIPR optical membrane potential assay, NaV1.8 (other subtypes in an analogous mode); settings: read-out: NaV 1.8 activity; Table 9, NaV 1.8 receptors

The chains behind the UniProt entries cited, without tags or fusion partners.
UniProt Q00975, whole entry: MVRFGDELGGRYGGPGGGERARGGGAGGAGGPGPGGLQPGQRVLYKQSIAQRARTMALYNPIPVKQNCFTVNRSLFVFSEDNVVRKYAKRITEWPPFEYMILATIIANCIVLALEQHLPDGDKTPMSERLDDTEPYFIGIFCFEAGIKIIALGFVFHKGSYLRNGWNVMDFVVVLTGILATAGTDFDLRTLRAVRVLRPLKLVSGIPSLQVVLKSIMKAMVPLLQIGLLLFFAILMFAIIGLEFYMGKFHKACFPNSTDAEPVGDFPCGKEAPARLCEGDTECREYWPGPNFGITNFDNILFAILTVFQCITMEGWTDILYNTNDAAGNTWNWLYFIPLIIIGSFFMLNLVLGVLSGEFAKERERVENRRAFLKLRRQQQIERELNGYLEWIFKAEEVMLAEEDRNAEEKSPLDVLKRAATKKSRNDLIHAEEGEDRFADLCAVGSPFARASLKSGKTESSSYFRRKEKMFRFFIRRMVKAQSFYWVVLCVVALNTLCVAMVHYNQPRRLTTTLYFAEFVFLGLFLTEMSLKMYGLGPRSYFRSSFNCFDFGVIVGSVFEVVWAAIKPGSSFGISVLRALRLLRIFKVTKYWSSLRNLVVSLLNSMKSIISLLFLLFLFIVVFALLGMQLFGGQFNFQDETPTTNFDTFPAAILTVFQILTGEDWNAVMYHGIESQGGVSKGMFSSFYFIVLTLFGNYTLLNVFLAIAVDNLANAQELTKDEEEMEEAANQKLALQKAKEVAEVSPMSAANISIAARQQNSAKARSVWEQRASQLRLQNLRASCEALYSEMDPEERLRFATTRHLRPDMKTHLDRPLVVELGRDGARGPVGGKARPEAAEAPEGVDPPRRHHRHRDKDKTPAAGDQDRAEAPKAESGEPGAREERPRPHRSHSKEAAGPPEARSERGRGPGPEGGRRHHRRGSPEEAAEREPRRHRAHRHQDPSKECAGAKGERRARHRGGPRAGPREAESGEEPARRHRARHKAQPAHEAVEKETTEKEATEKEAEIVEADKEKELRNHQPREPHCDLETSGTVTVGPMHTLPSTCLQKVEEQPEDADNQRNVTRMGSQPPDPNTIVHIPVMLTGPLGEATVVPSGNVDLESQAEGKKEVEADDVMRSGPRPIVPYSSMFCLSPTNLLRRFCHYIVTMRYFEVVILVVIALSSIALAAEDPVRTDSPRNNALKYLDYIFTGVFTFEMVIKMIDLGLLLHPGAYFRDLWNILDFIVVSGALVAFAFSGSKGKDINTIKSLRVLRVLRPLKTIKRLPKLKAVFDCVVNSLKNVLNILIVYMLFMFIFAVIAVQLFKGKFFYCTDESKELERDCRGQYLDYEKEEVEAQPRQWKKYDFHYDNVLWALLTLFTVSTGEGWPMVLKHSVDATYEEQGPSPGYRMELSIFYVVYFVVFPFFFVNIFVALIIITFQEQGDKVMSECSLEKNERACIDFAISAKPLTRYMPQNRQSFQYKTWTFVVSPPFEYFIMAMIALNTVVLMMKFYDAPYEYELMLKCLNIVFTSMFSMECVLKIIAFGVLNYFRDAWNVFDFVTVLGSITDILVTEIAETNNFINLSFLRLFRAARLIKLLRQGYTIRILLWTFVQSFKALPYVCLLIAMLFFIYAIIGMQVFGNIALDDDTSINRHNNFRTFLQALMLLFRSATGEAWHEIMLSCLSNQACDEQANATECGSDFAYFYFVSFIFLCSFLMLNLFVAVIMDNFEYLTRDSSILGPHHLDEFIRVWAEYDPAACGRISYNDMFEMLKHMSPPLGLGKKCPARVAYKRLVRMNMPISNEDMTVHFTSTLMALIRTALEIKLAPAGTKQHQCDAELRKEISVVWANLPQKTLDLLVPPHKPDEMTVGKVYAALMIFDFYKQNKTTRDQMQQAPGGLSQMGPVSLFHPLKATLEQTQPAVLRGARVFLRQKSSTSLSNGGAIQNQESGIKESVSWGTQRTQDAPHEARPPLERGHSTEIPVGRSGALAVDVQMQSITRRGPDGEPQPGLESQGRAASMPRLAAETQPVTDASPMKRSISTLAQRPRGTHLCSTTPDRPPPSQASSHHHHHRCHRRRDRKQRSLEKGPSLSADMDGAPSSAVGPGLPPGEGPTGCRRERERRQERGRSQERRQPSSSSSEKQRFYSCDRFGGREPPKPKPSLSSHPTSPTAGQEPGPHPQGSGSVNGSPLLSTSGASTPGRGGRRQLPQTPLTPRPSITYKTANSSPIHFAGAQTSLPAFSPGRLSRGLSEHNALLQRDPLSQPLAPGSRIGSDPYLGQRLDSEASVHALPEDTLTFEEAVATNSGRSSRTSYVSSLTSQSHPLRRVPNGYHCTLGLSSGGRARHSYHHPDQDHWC
UniProt Q9NY46, whole entry: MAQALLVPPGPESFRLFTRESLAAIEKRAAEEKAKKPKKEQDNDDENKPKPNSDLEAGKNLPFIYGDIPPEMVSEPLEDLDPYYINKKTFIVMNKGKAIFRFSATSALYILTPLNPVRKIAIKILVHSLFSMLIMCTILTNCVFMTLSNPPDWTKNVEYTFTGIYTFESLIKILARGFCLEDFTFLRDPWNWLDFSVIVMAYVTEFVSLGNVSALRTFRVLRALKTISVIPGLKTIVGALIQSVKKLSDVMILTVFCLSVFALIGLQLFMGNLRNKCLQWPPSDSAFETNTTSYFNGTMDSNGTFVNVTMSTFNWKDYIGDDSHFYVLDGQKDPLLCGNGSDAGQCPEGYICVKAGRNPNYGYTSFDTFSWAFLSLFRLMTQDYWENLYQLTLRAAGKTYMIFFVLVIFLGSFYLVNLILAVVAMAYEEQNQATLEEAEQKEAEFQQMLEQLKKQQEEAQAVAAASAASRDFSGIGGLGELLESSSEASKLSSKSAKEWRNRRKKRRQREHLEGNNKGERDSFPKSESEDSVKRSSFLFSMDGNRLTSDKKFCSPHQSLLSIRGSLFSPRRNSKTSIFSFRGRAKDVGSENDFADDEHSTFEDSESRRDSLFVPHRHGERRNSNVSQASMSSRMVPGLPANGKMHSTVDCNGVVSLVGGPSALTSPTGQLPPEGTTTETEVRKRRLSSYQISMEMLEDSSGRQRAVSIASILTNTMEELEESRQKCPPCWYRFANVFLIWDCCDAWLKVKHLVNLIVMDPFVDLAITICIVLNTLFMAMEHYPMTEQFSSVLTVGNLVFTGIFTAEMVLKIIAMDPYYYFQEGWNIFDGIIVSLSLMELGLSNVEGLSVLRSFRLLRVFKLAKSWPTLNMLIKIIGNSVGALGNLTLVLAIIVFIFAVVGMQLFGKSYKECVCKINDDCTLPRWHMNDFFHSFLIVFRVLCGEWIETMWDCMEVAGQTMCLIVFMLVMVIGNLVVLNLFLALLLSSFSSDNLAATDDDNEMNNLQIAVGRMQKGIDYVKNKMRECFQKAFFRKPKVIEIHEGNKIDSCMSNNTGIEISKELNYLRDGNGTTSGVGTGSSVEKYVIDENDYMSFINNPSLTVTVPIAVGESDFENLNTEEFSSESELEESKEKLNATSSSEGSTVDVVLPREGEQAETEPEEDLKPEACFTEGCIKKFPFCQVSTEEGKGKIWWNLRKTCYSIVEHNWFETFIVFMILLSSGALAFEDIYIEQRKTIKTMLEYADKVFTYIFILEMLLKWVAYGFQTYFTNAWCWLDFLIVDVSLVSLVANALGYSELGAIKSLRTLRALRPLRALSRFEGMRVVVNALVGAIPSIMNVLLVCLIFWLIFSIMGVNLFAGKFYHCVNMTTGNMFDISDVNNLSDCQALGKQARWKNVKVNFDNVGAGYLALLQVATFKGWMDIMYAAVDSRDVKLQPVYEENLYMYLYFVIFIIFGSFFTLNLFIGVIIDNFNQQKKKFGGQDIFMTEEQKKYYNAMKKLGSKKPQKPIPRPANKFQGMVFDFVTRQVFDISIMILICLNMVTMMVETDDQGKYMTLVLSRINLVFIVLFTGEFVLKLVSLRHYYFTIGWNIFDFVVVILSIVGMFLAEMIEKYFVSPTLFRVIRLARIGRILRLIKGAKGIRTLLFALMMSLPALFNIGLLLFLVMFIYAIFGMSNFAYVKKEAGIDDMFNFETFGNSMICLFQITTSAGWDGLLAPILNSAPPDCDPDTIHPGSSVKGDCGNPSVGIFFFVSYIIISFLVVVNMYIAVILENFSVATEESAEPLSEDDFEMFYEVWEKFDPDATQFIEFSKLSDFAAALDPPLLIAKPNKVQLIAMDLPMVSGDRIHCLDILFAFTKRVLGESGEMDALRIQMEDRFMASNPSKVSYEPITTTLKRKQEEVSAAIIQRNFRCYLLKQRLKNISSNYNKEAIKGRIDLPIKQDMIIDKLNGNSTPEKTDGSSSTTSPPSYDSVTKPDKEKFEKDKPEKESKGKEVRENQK
UniProt Q9Y5Y9, whole entry: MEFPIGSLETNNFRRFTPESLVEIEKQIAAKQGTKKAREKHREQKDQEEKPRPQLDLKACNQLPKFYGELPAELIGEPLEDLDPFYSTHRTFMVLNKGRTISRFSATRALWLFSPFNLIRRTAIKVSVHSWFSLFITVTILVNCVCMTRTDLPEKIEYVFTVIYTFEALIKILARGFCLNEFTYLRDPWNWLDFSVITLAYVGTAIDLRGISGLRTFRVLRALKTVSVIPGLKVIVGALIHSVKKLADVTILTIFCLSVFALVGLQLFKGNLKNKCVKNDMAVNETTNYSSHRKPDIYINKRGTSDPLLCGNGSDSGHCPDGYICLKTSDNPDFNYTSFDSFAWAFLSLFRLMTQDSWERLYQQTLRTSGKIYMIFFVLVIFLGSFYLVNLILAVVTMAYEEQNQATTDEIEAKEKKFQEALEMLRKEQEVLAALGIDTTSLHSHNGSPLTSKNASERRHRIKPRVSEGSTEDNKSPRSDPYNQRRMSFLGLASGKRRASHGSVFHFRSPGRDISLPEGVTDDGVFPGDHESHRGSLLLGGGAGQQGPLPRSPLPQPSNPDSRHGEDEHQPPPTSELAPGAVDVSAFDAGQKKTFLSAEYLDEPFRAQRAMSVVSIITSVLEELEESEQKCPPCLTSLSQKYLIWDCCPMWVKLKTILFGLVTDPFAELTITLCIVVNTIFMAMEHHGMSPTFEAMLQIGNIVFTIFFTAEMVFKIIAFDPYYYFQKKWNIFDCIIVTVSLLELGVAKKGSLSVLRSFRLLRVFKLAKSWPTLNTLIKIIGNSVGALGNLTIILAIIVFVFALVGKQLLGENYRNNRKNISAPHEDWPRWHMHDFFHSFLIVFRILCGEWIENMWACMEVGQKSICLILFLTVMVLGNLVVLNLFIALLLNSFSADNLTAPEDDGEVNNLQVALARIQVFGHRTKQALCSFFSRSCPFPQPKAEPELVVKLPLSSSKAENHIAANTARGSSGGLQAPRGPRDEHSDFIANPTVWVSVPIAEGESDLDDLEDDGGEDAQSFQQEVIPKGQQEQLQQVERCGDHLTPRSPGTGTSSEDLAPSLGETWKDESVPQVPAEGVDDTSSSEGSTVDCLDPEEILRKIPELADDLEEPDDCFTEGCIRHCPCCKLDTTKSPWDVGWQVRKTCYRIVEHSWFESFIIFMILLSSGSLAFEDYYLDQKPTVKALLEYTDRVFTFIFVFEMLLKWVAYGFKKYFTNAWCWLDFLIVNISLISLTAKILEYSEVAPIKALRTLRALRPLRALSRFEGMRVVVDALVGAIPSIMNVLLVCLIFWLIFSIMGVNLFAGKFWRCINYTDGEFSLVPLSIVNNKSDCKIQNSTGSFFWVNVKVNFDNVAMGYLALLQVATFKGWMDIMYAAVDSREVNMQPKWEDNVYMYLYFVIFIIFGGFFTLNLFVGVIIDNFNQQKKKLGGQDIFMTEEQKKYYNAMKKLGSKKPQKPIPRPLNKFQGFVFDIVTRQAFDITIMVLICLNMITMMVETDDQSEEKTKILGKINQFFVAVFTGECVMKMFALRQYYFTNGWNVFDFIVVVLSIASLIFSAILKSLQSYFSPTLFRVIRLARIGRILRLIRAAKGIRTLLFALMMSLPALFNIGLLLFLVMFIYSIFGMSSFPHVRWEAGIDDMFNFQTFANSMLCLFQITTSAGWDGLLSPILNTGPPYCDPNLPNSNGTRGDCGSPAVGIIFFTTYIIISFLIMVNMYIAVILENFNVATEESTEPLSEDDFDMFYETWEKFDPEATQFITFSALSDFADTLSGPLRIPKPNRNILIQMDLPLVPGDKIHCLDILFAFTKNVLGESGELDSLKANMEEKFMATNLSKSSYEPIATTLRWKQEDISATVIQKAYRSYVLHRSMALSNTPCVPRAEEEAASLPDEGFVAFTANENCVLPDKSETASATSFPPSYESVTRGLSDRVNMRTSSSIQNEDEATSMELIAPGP

IC50 [1]: > 10 µM
IC50 [2]: > 10 µM
IC50 [3]: > 10 µM
Compound: Cc1nc(N2CCCCC2)nc(-c2ccccc2F)c1C(=O)N(c1ccccc1)C(C)C

From US8546414B2, “Ion channel modulators and methods of use” (Vertex Pharmaceuticals Incorporated, priority 2004, dated 2013)
